Measured values taken from US20120021993A1 (AJOU UNIVERSITY INDUSTRY ACADEMIC COOPERATION FOUNDATION, published 2012).

Chains of the proteins cited; added tags and fusions are not shown. A line that says so, or that is headed by a name, gives the form on record, which may keep a tag or linker.
UniProt P01375, other isoform, or with tags, fused parts or gaps limits assumed: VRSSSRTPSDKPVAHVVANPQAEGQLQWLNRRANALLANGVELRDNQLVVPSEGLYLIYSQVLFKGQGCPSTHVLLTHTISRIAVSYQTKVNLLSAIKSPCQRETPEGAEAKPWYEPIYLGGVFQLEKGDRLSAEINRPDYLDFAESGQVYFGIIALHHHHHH

Biological target: TNFα, extracellular domain (amino acid residue 1-157), 6xHis tag (human, UniProt P01375 57-233)
Assay: cell-based or functional assay

B1: infliximab (antibody, V domains shown)
VH: EVKLEESGGGLVQPGGSMKLSCVASGFIFSNHWMNWVRQSPEKGLEWVAEIRSKSINSATHYAESVKGRFTISRDDSKSAVYLQMTDLRTEDTGVYYCSRNYYGSTYDYWGQGTTLTVSS
VL: DILLTQSPAILSVSPGERVSFSCRASQFVGSSIHWYQQRTNGSPRLLIKYASESMSGIPSRFSGSGSGTDFTLSINTVESEDIADYYCQQSHSWPFTFGSGTNLEVKR
With B1 the “IC50 (50% inhibiting concentration) of TNFα-mediated cell death, WEHI 164, MTT assay” value was roughly 2 nM.
